## AlphaSeq binding of Ab-14 heavy chain variants to a spike HR2 peptide

Reference: Li et al. 2023, doi:10.1038/s41467-023-39022-2. File: FLAb, binding data.

Binding partner: SARS-CoV-2 spike HR2 peptide, sequence PDVDLGDISGINAS.

Each scFv is VH, a (GGGGS)3 linker, VL, as in the parent Ab-14, and differs from it in the CDRs of the heavy chain only.
VH: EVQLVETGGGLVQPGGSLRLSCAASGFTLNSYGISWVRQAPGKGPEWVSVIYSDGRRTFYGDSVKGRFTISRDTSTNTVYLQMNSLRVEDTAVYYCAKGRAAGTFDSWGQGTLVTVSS
VL: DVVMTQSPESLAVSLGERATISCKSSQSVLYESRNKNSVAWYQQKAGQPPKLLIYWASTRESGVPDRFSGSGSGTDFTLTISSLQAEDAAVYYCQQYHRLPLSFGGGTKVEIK

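The starting antibody came from a phage panning campaign against this peptide. The variants were designed computationally from a first round of random CDR variants and then made and measured. Their group label is 14H_En_Gen (En: ensemble of fine-tuned language models; Gen: genetic algorithm). The assay is AlphaSeq: two haploid yeast populations carry antibody and antigen on their surface. After mating in shaken culture at 30 °C for 16 h, diploids were selected and their barcode pairs sequenced. The ratio of observed to expected reads was calibrated, replicate by replicate, on BCL2-family standards whose Kd was known from biolayer interferometry. The assay was run in six technical replicates.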

Variants are written as CDR1, CDR2 and CDR3 of the heavy chain (limits as in the source). Parent: GFTLNSYGIS, VIYSDGRRTFYGDSVK, GRAAGTFDS. The read-out is the apparent dissociation constant on a log10 scale (nM): the lower, the stronger. The authors averaged sequences with at least three values out of six and counted those with two or fewer as poor binders. Of ten entries with the parent sequence, four were seen in most replicates (averages 0.34 to 2.37), three in one and three in none, so single entries are noisy. A sequence measured in both rounds can read differently, since the two assays cover different ranges. As a blank, each scFv also met three strains without target: over all heavy chain designs, 1% of these pairings were detected, typically at 2.08 and seldom below 0.84. The control count says in how many pairings with the empty strains this scFv gave a signal, with their mean in brackets.

| CDR-H1 | CDR-H2 | CDR-H3 | log10 Kd (nM) by replicate | empty controls |
|---|---|---|---|---|
| GFDLNEYGIS | VIYADGVRTAYSDSVK | GTNAGTFDM | -0.70 / -0.64 / -0.92 / -0.88 / -0.67 / -0.49 | 1 of 18 (2.63) |
| GFDLDEYGIS | VIYADGMRTAYANSVK | GEVAGTFDV | -0.42 / -0.56 / -0.37 / -0.52 / -0.57 / -0.16 | 0 of 18 |
| GFDLNEYGIS | VIYADGMRTAYADSVK | GNQAGTFDT | -0.62 / -0.88 / -0.31 / -0.93 / 0.34 / -0.41 | 0 of 18 |
| GFDLDEYGIS | VIYADGVRTAYSDSVK | GEVAGTFDI | 0.07 / -0.11 / -0.31 / 0.02 / -0.10 / -0.05 | 0 of 18 |
| GFDLNEYGIS | VIYADGMRTAYSDDVK | GEVAGTFDV | -0.17 / -0.49 / -0.83 / -0.67 / -0.48 / -0.47 | 0 of 18 |
| GFDLDEYGIS | VIYADGQRTAYADSVK | GSNAGTFDI | 0.21 / 0.19 / -0.05 / 0.28 / -0.15 / 0.71 | 1 of 18 (2.22) |
| GFDLNEYGIS | VIYADGKRTAYADDVK | GENAGTFDM | -0.32 / -0.39 / -0.50 / -0.81 / -0.57 / -0.28 | 0 of 18 |
| GFDLNEYGIS | VIYADGRRTAYADDVK | GENAGTFDL | -0.38 / -0.57 / -0.67 / -0.67 / -0.64 / -0.19 | 0 of 18 |
| GFDLEEYGIS | VIYADGMRTAYADSVK | GNVAGTFDT | -0.17 / -0.45 / -0.33 / -0.53 / -0.40 / -0.25 | 0 of 18 |
| GFDLNEYGIS | VIYADGMRTVYADSVK | GETAGTFDI | -0.53 / -0.56 / -0.74 / -0.71 / -0.58 / -0.45 | 1 of 18 (2.06) |
| GFNLDEYGIS | VIYADGKRTAYADSVK | GEVAGTFDI | -0.25 / -0.76 / -0.61 / -0.44 / -0.62 / -0.43 | 1 of 18 (1.33) |
| GFDLNEYGIS | VIYADGKRTAYADDVK | GNVAGTFDA | -0.19 / -0.30 / -0.07 / -0.59 / -0.27 / -0.30 | 0 of 18 |
| GFDLDEYGIS | VIYADGVRTAYSDSVK | GENAGTFDV | -0.06 / -0.04 / 0.09 / -0.18 / 1.40 / 0.14 | 0 of 18 |
| GFDLNEYGIS | VIYADGMRKAYADSVK | GEVAGTFDQ | -0.84 / -0.99 / -1.07 / -1.21 / -1.30 / -0.70 | 1 of 18 (0.92) |
| GFDLNEYGIS | VIYADGMRTAYADNVK | GNNAGTFDV | -0.20 / -0.64 / -0.60 / -0.41 / -0.49 / 0.01 | 0 of 18 |
| GFDLNEYGIS | VIYADGMRTAYTDSVK | GEVAGTFDL | 0.27 / -0.35 / 0.05 / -0.01 / 0.05 / 0.11 | 0 of 18 |
| GFDLNEYGIS | VIYADGMRTAYTDNVK | GQVAGTFDV | -0.62 / -0.17 / -0.63 / -0.52 / -0.69 / -0.66 | 0 of 18 |
| GFDLNEYGIS | VIYADGMRTFYADDVK | GNVAGTFDL | -0.69 / -0.60 / -0.61 / -0.69 / -0.68 / -0.77 | 0 of 18 |
| GFDLDEYGIS | VIYADGQRTAYSDSVK | GENAGTFDM | 0.47 / 0.51 / -0.24 / -0.45 / -0.30 / 0.53 | 1 of 18 (1.59) |
| GFDLDEYGIS | VIYADGMRTAYSDSVK | GNNAGTFDI | 0.24 / 0.12 / -0.16 / 0.18 / 0.09 / 0.01 | 0 of 18 |
| GFDLNEYGIS | VIYADGMRTAYADTVK | GNVAGTFDT | 0.37 / 0.66 / 1.23 / 0.39 / 0.49 / 0.51 | 0 of 18 |
| GFDLNEYGIS | VIYADGMRTAYTDDVK | GNVAGTFDT | -0.30 / -0.57 / -0.52 / -0.39 / -0.33 / -0.41 | 0 of 18 |
| GFDLNEYGIS | VIYADGVRTAYTDSVK | GNVAGTFDQ | -0.36 / -0.14 / -0.48 / -0.35 / -0.72 / -0.28 | 0 of 18 |
| GFDLDEYGIS | VIYADGSRTAYADNVK | GNVAGTFDV | -0.04 / 0.18 / -0.10 / -0.30 / 0.11 / 0.02 | 1 of 18 (1.90) |
| GFNLDEYGIS | VIYADGMRTAYADSVK | GNVAGTFDM | -0.47 / -0.62 / -0.74 / -0.70 / -0.91 / -0.74 | 0 of 18 |
| GFDLDEYGIS | VIYADGMRTAYSDSVK | GTNAGTFDT | -0.45 / -0.65 / 0.56 / -0.27 / -0.56 / -0.81 | 0 of 18 |
| GFDLNEYGIS | VIYADGVRTAYADSVK | GNEAGTFDM | 0.54 / -0.19 / -0.23 / 0.02 / -0.04 / 0.17 | 0 of 18 |
| GFNLDEYGIS | VIYADGMRTAYADSVK | GQVAGTFDV | 0.19 / -0.54 / -0.54 / 0.54 / -0.76 / -0.65 | 0 of 18 |
| GFDLDEYGIS | VIYADGKRTAYTDSVK | GNTAGTFDV | -0.58 / -0.50 / -0.68 / -0.59 / -0.50 / -0.43 | 0 of 18 |
| GFDLNEYGIS | VIYADGKRTAYVDDVK | GEVAGTFDV | -0.45 / 0.04 / -0.36 / -1.12 / -0.88 / -0.72 | 0 of 18 |
| GFDLDEYGIS | VIYADGRRTAYSDSVK | GNTAGTFDI | -0.23 / -0.02 / -0.18 / -0.49 / -0.10 / 0.21 | 1 of 18 (1.77) |
| GFDLNEYGIS | VIYADGRRTAYSDSVK | GEVAGTFDQ | -0.68 / -0.58 / -0.26 / -0.73 / -0.43 / -0.30 | 0 of 18 |
| GFDLNEYGIS | VIYADGMRTAYSDDVK | GNTAGTFDQ | -0.47 / -0.53 / -0.77 / -0.53 / -0.70 / -0.02 | 0 of 18 |
| GFDLDEYGIS | VIYADGMRTAYADSVK | GNQAGTFDL | 0.24 / 0.30 / 0.20 / 0.22 / -0.07 / 0.68 | 1 of 18 (1.88) |
| GFDLDEYGIS | VIYADGMRTAYADSVK | GANAGTFDI | 0.76 / 0.74 / -0.19 / -0.26 / -0.36 / -0.10 | 0 of 18 |
| GFDLDEYGIS | VIYADGMRTAYVDSVK | GNVAGTFDV | -0.43 / 0.01 / -0.72 / -0.59 / 0.02 / 0.10 | 0 of 18 |
| GFDLNEYGIS | VIYADGVRTAYSDNVK | GENAGTFDV | -0.13 / 0.26 / 0.42 / -0.12 / 0.00 / 0.02 | 0 of 18 |
| GFDLNEYGIS | VIYADGVRTAYADDVK | GNTAGTFDV | -0.03 / 0.62 / -0.19 / 0.04 / 0.26 / 0.04 | 0 of 18 |

6 of these entries, quoted again:

CDR-H1	CDR-H2	CDR-H3	log10 Kd (nM) by replicate	empty controls
GFDLNEYGIS	VIYADGVRTAYADDVK	GNTAGTFDV	-0.03 / 0.62 / -0.19 / 0.04 / 0.26 / 0.04	0 of 18
GFDLDEYGIS	VIYADGVRTAYSDSVK	GENAGTFDV	-0.06 / -0.04 / 0.09 / -0.18 / 1.40 / 0.14	0 of 18
GFDLNEYGIS	VIYADGRRTAYSDSVK	GEVAGTFDQ	-0.68 / -0.58 / -0.26 / -0.73 / -0.43 / -0.30	0 of 18
GFDLNEYGIS	VIYADGVRTAYTDSVK	GNVAGTFDQ	-0.36 / -0.14 / -0.48 / -0.35 / -0.72 / -0.28	0 of 18
GFDLNEYGIS	VIYADGKRTAYADDVK	GNVAGTFDA	-0.19 / -0.30 / -0.07 / -0.59 / -0.27 / -0.30	0 of 18
GFDLDEYGIS	VIYADGQRTAYADSVK	GSNAGTFDI	0.21 / 0.19 / -0.05 / 0.28 / -0.15 / 0.71	1 of 18 (2.22)